Source: PubChem BioAssay AID2528 (National Center for Advancing Translational Sciences (NCATS), 2010)
Several values for one entry are separate records, joined by “and”; a condition that tells them apart may be missing. Equal entries are not always repeated. This is a selection; strong and weak results do not stand in their true shares. Activity calls are given as the source filed them. The call rests on the fitted dose curve; in most records, active means well fitted inhibition curve with a large enough effect; inconclusive means small, poorly fitted or top-dose-only effect; inactive means flat fitted curve, though single readings scatter.

Chains of the proteins cited; added tags and fusions are not shown. Lines headed by an entry give the natural chain unless they say otherwise; changes in a name come on top.
UniProt P54132: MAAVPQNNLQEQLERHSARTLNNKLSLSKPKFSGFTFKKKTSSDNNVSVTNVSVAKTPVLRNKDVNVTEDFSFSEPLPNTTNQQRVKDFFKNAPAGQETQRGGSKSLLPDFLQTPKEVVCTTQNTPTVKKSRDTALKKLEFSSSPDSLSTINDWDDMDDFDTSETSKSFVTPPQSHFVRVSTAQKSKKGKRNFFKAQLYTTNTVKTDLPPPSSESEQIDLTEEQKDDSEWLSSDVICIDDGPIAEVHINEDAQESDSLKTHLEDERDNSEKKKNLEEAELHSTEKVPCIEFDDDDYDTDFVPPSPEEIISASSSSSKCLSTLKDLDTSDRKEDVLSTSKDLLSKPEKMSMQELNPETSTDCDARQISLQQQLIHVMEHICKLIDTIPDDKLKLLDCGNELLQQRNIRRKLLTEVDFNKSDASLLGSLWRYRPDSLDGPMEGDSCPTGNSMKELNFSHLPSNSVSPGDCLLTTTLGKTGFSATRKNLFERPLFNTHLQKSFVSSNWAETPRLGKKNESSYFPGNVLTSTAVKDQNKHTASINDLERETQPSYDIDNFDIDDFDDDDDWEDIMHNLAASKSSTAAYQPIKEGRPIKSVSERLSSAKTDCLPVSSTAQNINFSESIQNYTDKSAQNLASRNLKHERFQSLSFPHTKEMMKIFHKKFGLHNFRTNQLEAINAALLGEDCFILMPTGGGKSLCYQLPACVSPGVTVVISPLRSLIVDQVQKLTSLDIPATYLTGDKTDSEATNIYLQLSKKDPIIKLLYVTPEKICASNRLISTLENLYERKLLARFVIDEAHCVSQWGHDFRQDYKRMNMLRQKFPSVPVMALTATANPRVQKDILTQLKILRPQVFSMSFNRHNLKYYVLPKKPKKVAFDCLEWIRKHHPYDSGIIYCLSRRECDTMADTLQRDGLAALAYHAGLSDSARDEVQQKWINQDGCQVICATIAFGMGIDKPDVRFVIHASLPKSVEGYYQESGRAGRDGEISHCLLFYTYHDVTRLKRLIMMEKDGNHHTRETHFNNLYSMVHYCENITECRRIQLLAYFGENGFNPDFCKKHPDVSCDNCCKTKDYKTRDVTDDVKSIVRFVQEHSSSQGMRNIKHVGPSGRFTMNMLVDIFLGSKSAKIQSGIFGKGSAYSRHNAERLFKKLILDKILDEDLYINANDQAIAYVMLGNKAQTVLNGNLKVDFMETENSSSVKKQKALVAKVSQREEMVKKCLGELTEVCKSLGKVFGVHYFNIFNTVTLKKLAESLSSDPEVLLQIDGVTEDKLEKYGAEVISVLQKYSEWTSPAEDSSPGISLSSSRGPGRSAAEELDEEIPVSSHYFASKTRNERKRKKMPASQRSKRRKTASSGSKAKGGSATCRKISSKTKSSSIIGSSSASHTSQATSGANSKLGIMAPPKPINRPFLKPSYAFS

Biological target: RecQ-like DNA helicase BLM (Homo sapiens) (UniProt P54132)
Test: qHTS Assay for Inhibitors of Bloom's syndrome helicase (BLM);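 further: plate controls were vehicle for no effect and no enzyme for full effect; nearly all actives have a fitted effect of over 35% in size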
Details: recombinant BLM DNA unwinding, fluorescence dequenching; at 56.1 µM (top of the series) unless noted

SMILES	activity change, negative = inhibition
CC(=O)N1C2C3N(C(C)=O)C1C1N(C(C)=O)C(C(N1C(C)=O)N3C(C)=O)N2C(C)=O	inactive: -1.69%
O=[N+]([O-])c1cccc2n[nH]nc12	inactive: -2.07%
Cc1ccc(NP(=O)(Oc2ccccc2)Oc2ccccc2)nc1	inactive: -0.528%
O=[N+]([O-])c1cc([N+](=O)[O-])c(CCNc2ccccc2)c([N+](=O)[O-])c1	inactive: -14.5%
CCc1nc2c(n1)c1c(non1O)c1c2no[n+]1[O-]	inactive: -1.86%
COc1ccc(C2=NCC(CBr)S2)cc1 (stereo not drawn)	inactive: 0.789%
CC(C)=N/N=C(\N)N[N+](=O)[O-]	inactive: 2.09%
CN(C)C(=O)OCCc1n(C)cc[n+]1C	inactive: 1.24%
CC(=O)C1=CCCC2CCC1N2 (stereo not drawn)	inactive: 0.914%
CC1CCN(C(=O)Oc2c(Cl)cc(Cl)c3cccnc23)CC1	inactive: -5.73%
Nc1ccc([As](=O)(O)c2ccc(N)cc2)cc1	inactive: -6.97%
CCN(/C(=N/P(=O)(N1CCOCC1)N1CCOCC1)N1CCOCC1)c1ccc(OC)cc1	inactive: 0.747%
O=C(Nc1cc([As](=O)(O)O)ccc1O)c1ccccc1	inactive: -3.15%
O=[N+]([O-])c1cccc(NC2=NCC(CBr)S2)c1 (stereo not drawn)	inactive: -4.49%
O=C(O)CNc1ccc([As](=O)(O)O)cc1	inactive: -2.09%
CC(C)(C)C(=O)NC(Sc1ccncn1)C(Cl)(Cl)Cl (stereo not drawn)	inactive: -2.72%
O=[N+]([O-])c1ncn(CCn2ncnc2[N+](=O)[O-])n1	inactive: 1.17%
Cc1cc(SC(NC(=O)c2ccc(F)cc2)C(Cl)(Cl)Cl)ncn1 (stereo not drawn)	inactive: 1.97%
CCOP(=O)(Nc1ccccc1)OCC	inactive: -3.12% and inactive: -5.16%
CN(C(=O)Cc1ccc(Cl)c(Cl)c1)[C@H]1CCCC[C@@H]1N1CCCC1	inactive: 2.53% [middle of 4 runs]
Cc1ccc(NP(=O)(Oc2ccccc2F)Oc2ccccc2F)nc1	inactive: 0.118%
CC(=O)Nc1ccc([As](=O)(O)O)cc1	inactive: -1.79%
O=C(O)c1ccccc1[As](=O)(O)O	inactive: -0.342%
O=P(Nc1nc2ccc(Cl)cc2s1)(c1ccccc1)c1ccccc1	inactive: -8.75%
CCN(N=Nc1nonc1N)c1nonc1N	inactive: -9.87%
Nc1cccc2ccc([As](=O)(O)O)cc12	inactive: -7.47%
O=[N+]([O-])c1cc([N+](=O)[O-])c(CCN2CCOCC2)c([N+](=O)[O-])c1	inactive: -19.2%
COc1ccccc1OP(=O)(Nc1ccc(C)cn1)Oc1ccccc1OC	inactive: -3.49%
